This note sets out measurements from US20250009801A1.

Bounds are passed on as bounds.

Test [1] concerns the target rat CLDN18.2 on CHO-GS cells (rat) (UniProt Q5I0E5). The test is described as follows: flow cytometry on CHO-GS cells expressing rat CLDN18.2. Also on record: unit not given beside the values. For orientation: A flow cytometer gives signals particle by particle.
Test [2] concerns the target human CLDN18.2 on cells (human) (UniProt P56856). Nature of the test: cell-based or functional assay.
For test [3] the target is unchanged. Nature of the test: flow cytometry on DAN-G18.2 cells.
Test [4] shares this target. Nature of the test: flow cytometry on CHO-GS-hCLDN18.2 cells.
The target is the same in test [5]. The test is described as follows: flow cytometry on SUN601 (SNU601) cells.
Test [6] has as its target rhesus monkey CLDN18.2 on CHO-GS cells (rhesus monkey) (UniProt F6YQY3). The test is described as follows: flow cytometry on CHO-GS cells expressing rhesus monkey CLDN18.2. Also on record: unit not given beside the values.
In test [7] the target is human CLDN18.2 on cells (human) (UniProt P56856). Nature of the test: flow cytometry on CHO-GS cells expressing human CLDN18.2.
The target in test [8] is human Claudin18.2-His (Acro, CL2-H5546) (human) (UniProt P56856). The test is described as follows: SPR (Biacore T200), Claudin18.2-His coupled on CM5 chip, antibody in the mobile phase (avidity).
The target in test [9] is mouse CLDN18.2 on CHO-GS cells (mouse) (UniProt P56857). Nature of the test: flow cytometry on CHO-GS cells expressing mouse CLDN18.2. The arrangement: unit not given beside the values.

Broadly, the EC50 is the concentration that produces a half-maximal response. In general, koff refers to the rate constant with which the complex falls apart. As usually defined, the kon is the rate constant with which the complex forms. Turning to “Zolbetuximab (clone 175D10) with P329G mutated human IgG1 constant region (antibody)”, the EC90 in [1] came to 65.9; in test [6], 15.8; in test [7], 113; in [9] it was 25.4. Also, the antibody concentration inducing complete killing of DAN-G18.2 cells by HuR968B CAR-T cells (8 h) in test [2] lay within 12.8 to 64 pM. In addition, in [2], the antibody concentration inducing complete killing of SNU601 cells by HuR968B CAR-T cells is above 64 pM. Moreover, the 50% effective concentration (EC50) in test [3] is 563 nM; in test [4], 14.4 nM; in [5], 97900 nM. The substance also came in with a Kd in test [8] of 1.38 nM. Besides, in test [8], the koff came to 0.00227 s⁻¹. In [8], this substance displayed an on-rate (kon) of 1.65e+06 M⁻¹ s⁻¹.
